Reference: US20140171427A1, “Heterocyclic chromene-spirocyclic piperidine amides as modulators of ion channels” (VERTEX PHARMACEUTICALS INCORPORATED, priority 2010, published 2014)

Biological target: human NaV subtype
Experiment: E-VIPR optical membrane potential assay with electrical stimulation
Settings: read-out: Binned Activity Data (IC50); active against one or more sodium channels; assay and NaV subtype not specified for Table 3
Text: E-VIPR Optical Membrane Potential Assay Method with Electrical Stimulation
Sodium channels are voltage-dependent proteins that can be activated by inducing membrane voltage changes by applying electric fields. The electrical stimulation instrument and methods of use are described in Ion Channel Assay Methods PCT/US01/21652, herein incorporated by reference and are referred to as E-VIPR. The instrument comprises a microtiter plate handler, an optical system for exciting the coumarin dye while simultaneously recording the coumarin and oxonol emissions, a waveform generator, a current- or voltage-controlled amplifier, and a device for inserting electrodes in well. Under integrated computer control, this instrument passes user-programmed electrical stimulus protocols to cells within the wells of the microtiter plate.
24 hours before the assay on E-VIPR, HEK cells expressing human NaV subtype, like NaV 1.7, are seeded in 384-well poly-lysine coated plates at 15,000-20,000 cells per well. Other subtypes are performed in an analogous mode in a cell line expressing the NaV of interest. HEK cells are grown in media (exact composition is specific to each cell type and NaV subtype) supplemented with 10% FBS (Fetal Bovine Serum, qualified; GibcoBRL #16140-071) and 1% Pen-Strep (Penicillin-Streptomycin; GibcoBRL #15140-122). Cells are grown in vented cap flasks, in 90% humidity and 10% CO2, to 100% confluence. They are usually split by trypsinization 1:10 or 1:20, depending on scheduling needs, and grown for 2-3 days before the next split.
100 mg/mL Pluronic F-127 (Sigma #P2443), in dry DMSO
Compound Plates: 384-well round bottom plate, e.g. Corning 384-well Polypropylene Round Bottom #3656
Cell Plates: 384-well tissue culture treated plate, e.g. Greiner #781091-1B
Bath1 buffer. Glucose 10 mM (1.8 g/L), Magnesium Chloride (Anhydrous), 1 mM (0.095 g/L), Calcium Chloride, 2 mM (0.222 g/L), HEPES 10 mM (2.38 g/L), Potassium Chloride, 4.5 mM (0.335 g/L), Sodium Chloride 160 mM (9.35 g/L).
Hexyl Dye Solution: Bath1 Buffer+0.5% β-cyclodextrin (make this prior to use, Sigma #C4767), 8 μM CC2-DMPE+DiSBAC6(3). To make the solution Add volume of 10% Pluronic F127 stock equal to volumes of CC2-DMPE+DiSBAC6(3). The order of preparation is first mix Pluronic and CC2-DMPE, then add DiSBAC6(3) while vortexing, then add Bath1+β-Cyclodextrin.
1) Pre-spot compounds (in neat DMSO) into compound plates. Vehicle control (neat DMSO), the positive control (20 mM DMSO stock tetracaine, 125 μM final in assay) and test compounds are added to each well at 160× desired final concentration in neat DMSO. Final compound plate volume will be 80 μL (80-fold intermediate dilution from 1 μL DMSO spot; 160-fold final dilution after transfer to cell plate). […]
7) Read Plate on E-VIPR. […]

**Q.** How did the IC50 turn out when `CC(C)Oc1ccc(C(=O)N2CCC3(CC2)Oc2ccccc2-n2cccc23)cc1C(F)(F)F` was run?
**A.** < 2 µM

**Q.** For `CCn1ncc2c1-c1ccccc1OC21CCN(C(=O)c2cccc(F)c2OC(F)F)CC1`, which IC50 is on record?
**A.** < 2 µM

**Q.** `CC(C)(C)S(=O)(=O)c1ccc(C(=O)N2CCC3(CC2)Oc2ccccc2-c2nn(C(F)(F)F)cc23)cc1` was tested. Which IC50 did it give?
**A.** < 2 µM

**Q.** `COc1cc(C(=O)N2CCC3(CC2)Oc2cc(Cl)ccc2-n2cccc23)ccc1CCO` was tested. Which IC50 did it give?
**A.** < 2 µM
